## Yeast mating assay B: variants of the scFv Ab-14

From the AlphaSeq antibody data of Li et al. 2023 (doi:10.1038/s41467-023-39022-2), copy in the FLAb collection.

Antigen: PDVDLGDISGINAS, a 14-residue peptide of the SARS-CoV-2 spike HR2 region.

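The starting antibody came from a phage panning campaign against this peptide. Designed CDR sequences, proposed from the first random library and measured here. Their group label is 14L_GP_Gibbs (GP: Gaussian process model; Gibbs: Gibbs sampling; a sequence that several methods proposed may carry one label only). Affinity was read by AlphaSeq, a pooled yeast mating assay with surface-displayed partners. Binding brings cells together so that they mate, and sequencing counts the barcode pairs among the diploids. The ratio of observed to expected reads was calibrated, replicate by replicate, on BCL2-family standards whose Kd was known from biolayer interferometry. Each pool was mated in six replicate cultures.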

Parent scFv Ab-14: VH joined to VL by a (GGGGS)3 linker. Changes lie in the light chain CDRs alone.
VH: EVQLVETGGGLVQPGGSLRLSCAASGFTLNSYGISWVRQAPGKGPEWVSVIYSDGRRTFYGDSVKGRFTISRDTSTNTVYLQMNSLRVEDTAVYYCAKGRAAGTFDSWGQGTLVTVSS
VL: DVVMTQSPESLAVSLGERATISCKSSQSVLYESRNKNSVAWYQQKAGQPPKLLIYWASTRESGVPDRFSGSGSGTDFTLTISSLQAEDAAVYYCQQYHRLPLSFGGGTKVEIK

The parent's light chain CDRs are KSSQSVLYESRNKNSVA, WASTRES, QQYHRLPLS; each variant's own CDRs replace them letter for letter.
The read-out is the apparent dissociation constant on a log10 scale (nM): the lower, the stronger.
A mean of the replicates is given; it leaves out those without a signal.
Three control strains display no target. For all light chain designs, 4% of the pairings with them gave a signal, with a median of 2.64 and one signal in twenty below 1.59, so weak values seen in few replicates may be background. For each scFv, signals with the empty controls are counted beside the result, with their mean in brackets.
The authors averaged sequences with at least three values out of six and counted those with two or fewer as poor binders.
Values of this round are not directly comparable with the first-round values of the same sequences.

{"CDR-L1": "KMEQSDWLQSRNVNSVA", "CDR-L2": "QASTRES", "CDR-L3": "QQYHRLPLS", "log10 Kd (nM) by replicate": "1.47 1.38 0.99 0.56 0.83 0.76", "log10 Kd (nM), mean": "1.00", "control signals": "0 of 18"}
{"CDR-L1": "KLSEQAEYESRNKNSVA", "CDR-L2": "QASTREM", "CDR-L3": "QQYHRLPLS", "log10 Kd (nM) by replicate": "-0.74 -0.40 -0.87 -0.39 -0.54 -0.49", "log10 Kd (nM), mean": "-0.57", "control signals": "0 of 18"}
{"CDR-L1": "KLSQSVLYQMEMKNSVA", "CDR-L2": "QASTRMS", "CDR-L3": "QQYHRLPLS", "log10 Kd (nM) by replicate": "0.21 0.08 -0.10 0.08 -0.05 0.08", "log10 Kd (nM), mean": "0.05", "control signals": "0 of 18"}
{"CDR-L1": "KHSIGVWGGDRNKNSVA", "CDR-L2": "DASTRES", "CDR-L3": "QQYHRLPLS", "log10 Kd (nM) by replicate": "0.35 0.19 0.00 -0.04 -0.02 -0.07", "log10 Kd (nM), mean": "0.07", "control signals": "1 of 18 (1.79)"}
{"CDR-L1": "KLMQEWEYQSRMKNSVA", "CDR-L2": "HASERES", "CDR-L3": "QQYHRLPLS", "log10 Kd (nM) by replicate": "0.32 0.23 0.23 0.24 0.47 0.43", "log10 Kd (nM), mean": "0.32", "control signals": "2 of 18 (2.51)"}
{"CDR-L1": "KAQQSVGYGERMSNSVA", "CDR-L2": "EASTRES", "CDR-L3": "QQYHRLPLS", "log10 Kd (nM) by replicate": "0.16 0.13 0.15 -0.06 -0.08 0.28", "log10 Kd (nM), mean": "0.10", "control signals": "1 of 18 (3.63)"}
{"CDR-L1": "KLQFSCLYESRNKNSVA", "CDR-L2": "NASYRSS", "CDR-L3": "QQYHRLPLS", "log10 Kd (nM) by replicate": "0.54 0.23 0.46 0.55 0.54 0.66", "log10 Kd (nM), mean": "0.50", "control signals": "2 of 18 (3.17)"}
{"CDR-L1": "KLSQQDWYEQRNKNSVA", "CDR-L2": "QASVREQ", "CDR-L3": "QQYHRLPLS", "log10 Kd (nM) by replicate": "-0.38 -0.44 -0.58 -0.62 -0.64 -0.36", "log10 Kd (nM), mean": "-0.50", "control signals": "1 of 18 (2.41)"}
{"CDR-L1": "KLSQSVEQEERNKNSVA", "CDR-L2": "HASVREV", "CDR-L3": "QQYHRLPLS", "log10 Kd (nM) by replicate": "0.60 0.24 0.33 1.01 0.27 -0.01", "log10 Kd (nM), mean": "0.40", "control signals": "0 of 18"}
{"CDR-L1": "KSAQSDLMESRNFNSVA", "CDR-L2": "AASTRES", "CDR-L3": "QQYHRLPLS", "log10 Kd (nM) by replicate": "0.12 0.09 -0.01 -0.07 -0.06 0.09", "log10 Kd (nM), mean": "0.03", "control signals": "1 of 18 (2.77)"}
{"CDR-L1": "KLMQEMLYESRMINSVA", "CDR-L2": "NASQREE", "CDR-L3": "QQYHRLPLS", "log10 Kd (nM) by replicate": "1.03 0.68 0.74 1.44 0.95 0.99", "log10 Kd (nM), mean": "0.97", "control signals": "2 of 18 (2.71)"}
{"CDR-L1": "KWQQSDDQESRNHNSVA", "CDR-L2": "HASTRCS", "CDR-L3": "QQYHRLPLS", "log10 Kd (nM) by replicate": "0.99 0.34 0.76 0.69 0.58 0.58", "log10 Kd (nM), mean": "0.66", "control signals": "3 of 18 (1.70)"}
{"CDR-L1": "KQQFSSGMEQRNKNSVA", "CDR-L2": "SASTRCS", "CDR-L3": "QQYHRLPLS", "log10 Kd (nM) by replicate": "1.23 0.44 0.76 0.79 1.19 1.08", "log10 Kd (nM), mean": "0.92", "control signals": "2 of 18 (3.10)"}
{"CDR-L1": "KARQSQLYESRNQNSVA", "CDR-L2": "NASQRLS", "CDR-L3": "QQYHRLPLS", "log10 Kd (nM) by replicate": "0.68 1.03 1.13 2.89 1.32 2.15", "log10 Kd (nM), mean": "1.53", "control signals": "0 of 18"}
{"CDR-L1": "KMEQSDLLESRNVNSVA", "CDR-L2": "QASTRES", "CDR-L3": "QQYHRLPLS", "log10 Kd (nM) by replicate": "-0.12 -0.38 -0.22 -0.38 -0.40 -0.28", "log10 Kd (nM), mean": "-0.30", "control signals": "0 of 18"}
{"CDR-L1": "KLSQSVEYESRNKNSVA", "CDR-L2": "NASTREY", "CDR-L3": "QQYHRLPLA", "log10 Kd (nM) by replicate": "-0.29 -0.39 -0.38 -0.49 -0.38 0.09", "log10 Kd (nM), mean": "-0.31", "control signals": "1 of 18 (3.07)"}
{"CDR-L1": "KVSMLHDYESRAKNSVA", "CDR-L2": "QASTRES", "CDR-L3": "QDYHRLPLS", "log10 Kd (nM) by replicate": "0.47 0.35 0.23 0.26 0.44 0.29", "log10 Kd (nM), mean": "0.34", "control signals": "2 of 18 (3.05)"}
{"CDR-L1": "KLSQSFLYESQNWNSVA", "CDR-L2": "NASKRES", "CDR-L3": "QQYHRLPLS", "log10 Kd (nM) by replicate": "0.04 -0.02 -0.03 -0.05 -0.09 -0.05", "log10 Kd (nM), mean": "-0.04", "control signals": "0 of 18"}